For one molecule, Ratio Ki results are on record in ChEMBL document CHEMBL1148804, “Enzyme adaptation to inhibitor binding: a cryptic binding site in phenylethanolamine N-methyltransferase” (J Med Chem, 2007).

The structures appear in SMILES notation.

The assay is filed under the species Homo sapiens. Nature of the assay: Ratio of Ki for wild type human PNMT to Ki for human PNMT K57 mutant.

Regarding `Ic1ccc2c(c1)CNCC2`, the Ratio Ki is 0.05.
